This is an account of results in ChEMBL document CHEMBL5126587, “Anti-HCV and Zika activities of ribavirin C-nucleosides analogues” (Bioorg Med Chem, 2022).

What all share (format): functional, organism-based
One assay deals with Hepatitis C virus. The note with it: Hepacivirus hominis; genotype 2a (JFH-AM71); Huh7-J20; time 72.0 hrs.
Assay [1] has as its system Zika virus. The note with it: H/PAN/2016/BEI-259634, Huh7.5, time 3.0 day.
For assay [2], the system named is Zika virus. The note with it: H/PAN/2016/BEI-259634, Vero, time 3.0 day.

`O=C(NCCCO)c1n[nH]nc1[C@@H]1O[C@H](CO)[C@@H](O)[C@H]1O`: the Activity result in the assay with Hepatitis C virus is “Dde”.

`NC(=O)c1n[nH]nc1[C@@H]1O[C@H](CO)[C@@H](O)[C@H]1O`: in the assay on Hepatitis C virus, the Activity entry is “Dde”.

Turning to `NC(=O)c1ncn([C@@H]2O[C@H](CO)[C@@H](O)[C@H]2O)n1` [RIBAVIRIN], the Activity entry in the assay with Hepatitis C virus was “Dde”.

Consider `O=C(NO)c1n[nH]nc1[C@@H]1O[C@H](CO)[C@@H](O)[C@H]1O`, for which the Activity entry with Hepatitis C virus, with Zika virus [1] and in the assay with Zika virus [2] was “Dde” throughout.

With `CCCNC(=O)c1n[nH]nc1[C@@H]1O[C@H](CO)[C@@H](O)[C@H]1O`, in the assay with Hepatitis C virus, the Activity result is “Dde”.
